According to US7244744B2, “Piperidines” (Icagen, Inc., priority 2001, dated 2007):
Only a part of the results on these compounds is given; other tests are left out.

Sequences of proteins named here, by UniProt entry; tags and fusion partners are left off.
UniProt Q9Y5Y9, whole entry: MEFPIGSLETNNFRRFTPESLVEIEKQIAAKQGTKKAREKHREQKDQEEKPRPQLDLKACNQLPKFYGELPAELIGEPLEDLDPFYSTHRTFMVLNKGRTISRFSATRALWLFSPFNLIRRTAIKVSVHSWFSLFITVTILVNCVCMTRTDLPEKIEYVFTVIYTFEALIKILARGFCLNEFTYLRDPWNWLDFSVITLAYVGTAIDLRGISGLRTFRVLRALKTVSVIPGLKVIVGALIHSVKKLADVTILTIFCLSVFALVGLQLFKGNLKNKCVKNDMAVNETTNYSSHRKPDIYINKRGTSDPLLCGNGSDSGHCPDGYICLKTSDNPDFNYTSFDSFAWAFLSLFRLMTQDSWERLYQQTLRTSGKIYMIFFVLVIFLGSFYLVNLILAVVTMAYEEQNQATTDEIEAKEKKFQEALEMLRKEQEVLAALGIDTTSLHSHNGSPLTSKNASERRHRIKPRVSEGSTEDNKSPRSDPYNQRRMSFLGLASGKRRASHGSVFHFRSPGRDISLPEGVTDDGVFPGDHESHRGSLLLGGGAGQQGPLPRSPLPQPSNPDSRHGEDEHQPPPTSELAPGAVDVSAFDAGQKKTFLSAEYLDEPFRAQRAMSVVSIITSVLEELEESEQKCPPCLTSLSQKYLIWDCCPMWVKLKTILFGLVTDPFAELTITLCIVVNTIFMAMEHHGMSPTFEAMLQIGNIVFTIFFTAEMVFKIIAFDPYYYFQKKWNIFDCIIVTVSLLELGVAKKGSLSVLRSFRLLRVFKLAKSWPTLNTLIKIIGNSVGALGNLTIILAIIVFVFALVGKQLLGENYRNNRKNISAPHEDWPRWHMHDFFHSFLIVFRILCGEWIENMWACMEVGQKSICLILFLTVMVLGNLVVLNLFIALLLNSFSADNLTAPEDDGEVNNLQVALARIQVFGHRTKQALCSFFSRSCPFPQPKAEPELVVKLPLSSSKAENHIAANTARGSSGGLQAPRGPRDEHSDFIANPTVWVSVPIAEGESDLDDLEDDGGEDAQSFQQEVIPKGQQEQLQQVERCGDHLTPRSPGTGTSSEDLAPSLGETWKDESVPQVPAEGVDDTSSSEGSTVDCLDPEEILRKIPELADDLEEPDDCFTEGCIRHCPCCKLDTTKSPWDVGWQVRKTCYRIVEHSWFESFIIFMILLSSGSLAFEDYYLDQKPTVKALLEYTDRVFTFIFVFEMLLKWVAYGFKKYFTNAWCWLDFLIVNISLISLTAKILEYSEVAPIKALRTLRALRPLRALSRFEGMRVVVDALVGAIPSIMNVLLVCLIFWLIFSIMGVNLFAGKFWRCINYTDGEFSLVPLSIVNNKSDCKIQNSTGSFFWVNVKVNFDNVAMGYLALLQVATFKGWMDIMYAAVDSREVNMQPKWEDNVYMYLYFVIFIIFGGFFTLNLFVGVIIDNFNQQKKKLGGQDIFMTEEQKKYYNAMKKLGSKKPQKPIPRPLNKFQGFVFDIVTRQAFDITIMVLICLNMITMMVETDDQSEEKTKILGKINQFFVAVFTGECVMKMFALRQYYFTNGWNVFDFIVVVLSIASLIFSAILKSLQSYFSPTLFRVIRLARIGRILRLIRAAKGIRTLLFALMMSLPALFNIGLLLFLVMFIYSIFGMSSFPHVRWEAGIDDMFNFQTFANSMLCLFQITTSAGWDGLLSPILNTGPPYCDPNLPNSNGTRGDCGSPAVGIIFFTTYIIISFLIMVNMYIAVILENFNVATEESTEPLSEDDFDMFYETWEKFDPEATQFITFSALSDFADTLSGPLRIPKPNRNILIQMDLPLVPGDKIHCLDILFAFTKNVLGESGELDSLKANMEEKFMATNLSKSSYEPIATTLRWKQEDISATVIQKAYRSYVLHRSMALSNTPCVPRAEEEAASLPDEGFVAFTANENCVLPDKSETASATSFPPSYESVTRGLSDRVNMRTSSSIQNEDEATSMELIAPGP

Target: PN3 (Homo sapiens, UniProt Q9Y5Y9)
Experiment: 14C Guanidinium Ion Influx Binding Assay (flux assay)
Conditions: read-out: Activity in Flux Assay, activity towards PN3, PN3 stably expressed in a host cell line, deltamethrine 10 μM
Method: 1.1 ^14C Guanidinium Ion Influx Binding Assay
PN3 stably expressed in a host cell line were maintained in DMEM with 5% fetal bovine serum and 300 μg/ml G-418. The cells were subcultured and grown to confluence in 96-well plates 24-48 h before each experiment. After the growth medium was removed, the cells were washed with warm buffer (25 mM Hepes-Tris, 135 mM choline chloride, 5.4 mM potassium chloride, 0.98 mM magnesium sulfate, 5.5 mM glucose, and 1 mg/ml BSA, pH 7.4) and incubated in buffer on a 36° C. slide wanner for approximately 10 minutes. Various concentrations of the test compounds or standard sodium channel blockers (10 μM) and then deltamethrine (10 μM) were added to each well. After the cells were exposed to deltamethrine for 5 minutes, 5 μM of ^14C-guanidinium was added, incubated with the radioligand (30-60 min), washed with ice-cold buffer, and dissolved in 0.1N sodium hydroxide. The radioactivity and the protein concentration of each cell lysate were determined by liquid scintillation counting and the protein assay using Pierce BCA reagent.

Row | Structure (SMILES) | IC50
1 | Cn1c(=O)n(C2CCN(Cc3ccccc3)CC2)c2ccccc21 | 4.1 to 10 µM
2 | CCCCc1ccc(CN2CCC(n3c(=O)[nH]c4ccccc43)CC2)cc1 | 0.1 to 4 µM
